Laboratory results as given in patent US10500226B2.

Tested on: serum albumin
Assay: Concanavalin A mouse model: serum albumin
Type: in vivo, C57BL/6 (B6) mice

C[C@@H]1C[C@H]2[C@@H]3CCC4=CC(=O)C=C[C@]4(C)[C@@]3(F)[C@@H](O)C[C@]2(C)[C@@]1(O)C(=O)CO [Dexamethasone]
serum albumin levels (2% solutions i.p., 14 hours after Con A administration): 37±17 | serum albumin levels (biotinylated alginate experiment, 48 hours after Con A administration): 33±4 | serum albumin levels (hyaluronan comparison, 48 hours after Con A administration): 28.5±4 | serum albumin levels (i.p., Table 3 experiment, 48 hours after Con A administration): 36.2±0.6 | serum albumin levels (oral administration, Table 7 experiment, 48 hours after Con A administration): 42.5±2 | serum albumin levels (oral administration, Table 8 experiment, 48 hours after Con A administration): 41±4 | serum albumin levels (γ-irradiated alginate comparison, 48 hours after Con A administration): 39±1
